Source: ChEMBL document CHEMBL5126517, “Structure-Activity Relationship in the Leucettine Family of Kinase Inhibitors” (J Med Chem, 2022)

By UniProt entry, the sequences of proteins in these tests, tags left out. Where a name states a change or a piece, a line headed by the entry shows the natural chain unless it says otherwise.
UniProt O35493: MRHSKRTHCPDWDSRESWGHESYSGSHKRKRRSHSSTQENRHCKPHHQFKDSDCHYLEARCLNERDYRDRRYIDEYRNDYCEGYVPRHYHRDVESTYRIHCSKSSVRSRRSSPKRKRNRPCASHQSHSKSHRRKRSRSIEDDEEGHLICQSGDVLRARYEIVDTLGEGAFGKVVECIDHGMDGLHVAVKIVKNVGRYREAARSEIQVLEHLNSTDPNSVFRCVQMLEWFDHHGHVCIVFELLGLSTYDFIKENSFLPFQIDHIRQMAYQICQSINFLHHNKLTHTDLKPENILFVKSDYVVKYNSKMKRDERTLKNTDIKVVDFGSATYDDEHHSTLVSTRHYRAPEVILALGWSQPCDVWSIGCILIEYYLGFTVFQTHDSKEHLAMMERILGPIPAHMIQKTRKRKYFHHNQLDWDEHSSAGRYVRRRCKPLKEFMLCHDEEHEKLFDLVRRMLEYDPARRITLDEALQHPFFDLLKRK

Columns and labels:
HT-22 = assay: Modulation of CLK1 pre-mRNA splicing in mouse HT-22 cells assessed as inclusion of CLK1 exon 4 by measuring change in threshold cycle at 10 uM measured after 4 hrs by real time PCR analysis; format: cell-based; conditions: filed as modulator
[1] = target: Dual specificity protein kinase CLK4 (Mus musculus, UniProt O35493); assay: Inhibition of GST-fused mouse recombinant CLK4 expressed in Escherichia coli using GRSRSRSRSRSR peptide as substrate incubated for 30 mins in presence of ATP by scintillation counting method
[2] = target: T1, Dual specificity tyrosine-phosphorylation-regulated kinase 3 (Homo sapiens, UniProt O43781); assay: Inhibition of GST-fused human recombinant DYRK3 expressed in Escherichia coli using GRSRSRSRSRSR peptide as substrate incubated for 30 mins in presence of ATP by scintillation counting method
T1 sequence (O43781 whole entry): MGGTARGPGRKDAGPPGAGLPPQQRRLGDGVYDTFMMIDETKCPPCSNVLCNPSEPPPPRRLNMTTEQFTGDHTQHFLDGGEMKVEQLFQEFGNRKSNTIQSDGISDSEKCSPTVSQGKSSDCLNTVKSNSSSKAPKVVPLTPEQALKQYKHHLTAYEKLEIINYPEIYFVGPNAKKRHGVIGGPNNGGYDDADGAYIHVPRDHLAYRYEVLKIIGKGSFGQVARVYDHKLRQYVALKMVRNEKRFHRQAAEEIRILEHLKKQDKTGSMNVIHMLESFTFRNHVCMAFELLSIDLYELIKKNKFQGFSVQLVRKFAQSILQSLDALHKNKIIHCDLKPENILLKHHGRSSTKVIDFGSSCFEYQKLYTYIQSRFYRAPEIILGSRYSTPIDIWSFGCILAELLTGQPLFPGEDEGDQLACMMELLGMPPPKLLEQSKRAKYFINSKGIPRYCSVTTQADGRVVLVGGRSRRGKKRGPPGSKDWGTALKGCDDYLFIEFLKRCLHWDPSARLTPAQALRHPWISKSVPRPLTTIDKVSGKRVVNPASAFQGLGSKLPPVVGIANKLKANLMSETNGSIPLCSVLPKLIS

Row | SMILES | deltaCT (HT-22) | further results
1 | Cc1ccc(NC2=N/C(=C\c3ccc4c(c3)OCO4)C(=O)N2)c(C)c1 | 1.21 | 
2 | O=C1NC(Nc2ccccn2)=N/C1=C\c1ccc2c(c1)OCO2 | 6.6 | 
3 | O=C1NC(Nc2ccccc2)=N/C1=C\c1ccc2c(c1)OCCO2 | 3.14 | 
4 | COc1ccc(/C=C2\N=C(Nc3ccccc3)NC2=O)cc1 | 0.42 | 
5 | O=C1NC(Nc2ccccc2)=N/C1=C\c1ccc2c(c1)OCCCO2 | 0.15 | 
6 | CN1CCN(c2ccc(NC3=N/C(=C\C4=COc5ccccc5O4)C(=O)N3)cc2)CC1 | 6.68 | 
7 | CCCCCCc1ccc(NC2=N/C(=C\c3ccc4c(c3)OCO4)C(=O)N2)cc1 | 0.03 | 
8 | O=C1NC(Nc2cccc(F)c2)=N/C1=C\c1ccc2c(c1)OCO2 | 8.85 | 
9 | Cc1ccc(NC2=N/C(=C\c3ccc4c(c3)OCO4)C(=O)N2)cc1C | 4.57 | 
10 | O=C1NC(Nc2ccccc2)=N/C1=C\c1ccccc1 | 0.34 | 
11 | O=C1NC(Nc2ccc(Oc3ccccc3)cc2)=N/C1=C\c1ccc2c(c1)OCO2 | 0.18 | 
12 | O=C1NC(N2CCN(c3ccc(F)cc3)CC2)=N/C1=C\c1ccc2c(c1)OCCO2 | 0.12 | 
13 | CCCCOc1ccc(/C=C2\N=C(Nc3ccccc3)NC2=O)cc1OC | 0.38 | 
14 | CN(C1=N/C(=C\c2ccc3c(c2)OCO3)C(=O)N1)c1ccccc1 | 1.16 | 
15 | COc1cc(/C=C2\N=C(Nc3ccccc3)NC2=O)ccc1O | 8.64 | 
16 | COc1cc(/C=C2\N=C(Nc3ccc(N4CCN(C)CC4)cc3)NC2=O)ccc1O | 0.52 | 
17 | [2H]C1([2H])Oc2ccc(/C=C3\N=C(Nc4ccccc4)NC3=O)cc2O1 |  | IC50 [1]: 29 nM; IC50 [2]: 400 nM
18 | O=C1NC(Nc2ccccc2)=N/C1=C\c1ccc2c(c1)CCCO2 | 0.75 | 

Row | SMILES | deltaCT (HT-22) | further results
19 | CCCCCCc1ccc(NC2=N/C(=C\c3ccc(O)c(OC)c3)C(=O)N2)cc1 | 0.82 | 
20 | O=C1NC(Nc2ccc(N3CCNCC3)cc2)=N/C1=C\c1ccc2c(c1)OC=CO2 | 0.41 | 
21 | O=C1NC(Nc2ccccc2)=N/C1=C\c1ccc2c(c1)CCO2 | 8.2 | 
22 | O=C1NC(Nc2ccc(O)c(F)c2)=N/C1=C\c1ccc2c(c1)OCO2 | 9.73 | 
23 | COc1cc(/C=C2\N=C(Nc3ccc(N4CCCCC4)cc3)NC2=O)ccc1O | 0.33 | 
24 | O=C1NC(Nc2ccccc2)=N/C1=C\c1cccc(F)c1 | 0.08 | 
25 | O=C1NC(Nc2ccccc2)=N/C1=C\c1ccc(F)cc1 | 0.19 | 
26 | O=C1NC(Nc2ccc(N3CCCCC3)cc2)=N/C1=C\c1ccc2c(c1)OCO2 | 0.28 | 
27 | COc1cccc(/C=C2\N=C(Nc3ccccc3)NC2=O)c1 | 0.41 | 
28 | O=C1NC(Nc2ccc(N3CCNCC3)cc2)=N/C1=C\c1ccc2c(c1)OCO2 | 0.37 | 
29 | O=C1NC(Nc2ccc(-c3ccccc3)cc2)=N/C1=C\c1ccc2c(c1)OCO2 | 0.3 | 
30 | O=C1NC(Nc2ccccc2)=N/C1=C\c1ccc(O)c(O)c1 | 2.69 | 
31 | O=C1NC(Nc2ccc(F)cc2)=N/C1=C\c1ccc2c(c1)OCO2 | 5.73 | 
32 | COc1cc(/C=C2\N=C(Nc3ccc(N4CCNCC4)cc3)NC2=O)ccc1O | 0.72 | 
33 | Cc1ccc(C)c(NC2=N/C(=C\c3ccc4c(c3)OCO4)C(=O)N2)c1 | 6.1 | 
34 | COc1ccc(/C=C2\N=C(Nc3ccccc3)NC2=O)cc1O | 0.1 | 
35 | CCCCCOc1ccc(NC2=N/C(=C\c3ccc4c(c3)OCO4)C(=O)N2)cc1 | 0.01 | 
